These are literature values, as cited in patent US20180280372A1, “COMPOSITIONS AND METHODS FOR INHIBITING AUTOPHAGY AND CONTRACEPTION” (Washington University, priority 2016, published 2018).

Protein sequences, listed by entry. Tags and fused reporters are not part of them. Lines headed by an entry give the natural chain unless they say otherwise; changes in a name come on top.
UniProt P78527, whole entry: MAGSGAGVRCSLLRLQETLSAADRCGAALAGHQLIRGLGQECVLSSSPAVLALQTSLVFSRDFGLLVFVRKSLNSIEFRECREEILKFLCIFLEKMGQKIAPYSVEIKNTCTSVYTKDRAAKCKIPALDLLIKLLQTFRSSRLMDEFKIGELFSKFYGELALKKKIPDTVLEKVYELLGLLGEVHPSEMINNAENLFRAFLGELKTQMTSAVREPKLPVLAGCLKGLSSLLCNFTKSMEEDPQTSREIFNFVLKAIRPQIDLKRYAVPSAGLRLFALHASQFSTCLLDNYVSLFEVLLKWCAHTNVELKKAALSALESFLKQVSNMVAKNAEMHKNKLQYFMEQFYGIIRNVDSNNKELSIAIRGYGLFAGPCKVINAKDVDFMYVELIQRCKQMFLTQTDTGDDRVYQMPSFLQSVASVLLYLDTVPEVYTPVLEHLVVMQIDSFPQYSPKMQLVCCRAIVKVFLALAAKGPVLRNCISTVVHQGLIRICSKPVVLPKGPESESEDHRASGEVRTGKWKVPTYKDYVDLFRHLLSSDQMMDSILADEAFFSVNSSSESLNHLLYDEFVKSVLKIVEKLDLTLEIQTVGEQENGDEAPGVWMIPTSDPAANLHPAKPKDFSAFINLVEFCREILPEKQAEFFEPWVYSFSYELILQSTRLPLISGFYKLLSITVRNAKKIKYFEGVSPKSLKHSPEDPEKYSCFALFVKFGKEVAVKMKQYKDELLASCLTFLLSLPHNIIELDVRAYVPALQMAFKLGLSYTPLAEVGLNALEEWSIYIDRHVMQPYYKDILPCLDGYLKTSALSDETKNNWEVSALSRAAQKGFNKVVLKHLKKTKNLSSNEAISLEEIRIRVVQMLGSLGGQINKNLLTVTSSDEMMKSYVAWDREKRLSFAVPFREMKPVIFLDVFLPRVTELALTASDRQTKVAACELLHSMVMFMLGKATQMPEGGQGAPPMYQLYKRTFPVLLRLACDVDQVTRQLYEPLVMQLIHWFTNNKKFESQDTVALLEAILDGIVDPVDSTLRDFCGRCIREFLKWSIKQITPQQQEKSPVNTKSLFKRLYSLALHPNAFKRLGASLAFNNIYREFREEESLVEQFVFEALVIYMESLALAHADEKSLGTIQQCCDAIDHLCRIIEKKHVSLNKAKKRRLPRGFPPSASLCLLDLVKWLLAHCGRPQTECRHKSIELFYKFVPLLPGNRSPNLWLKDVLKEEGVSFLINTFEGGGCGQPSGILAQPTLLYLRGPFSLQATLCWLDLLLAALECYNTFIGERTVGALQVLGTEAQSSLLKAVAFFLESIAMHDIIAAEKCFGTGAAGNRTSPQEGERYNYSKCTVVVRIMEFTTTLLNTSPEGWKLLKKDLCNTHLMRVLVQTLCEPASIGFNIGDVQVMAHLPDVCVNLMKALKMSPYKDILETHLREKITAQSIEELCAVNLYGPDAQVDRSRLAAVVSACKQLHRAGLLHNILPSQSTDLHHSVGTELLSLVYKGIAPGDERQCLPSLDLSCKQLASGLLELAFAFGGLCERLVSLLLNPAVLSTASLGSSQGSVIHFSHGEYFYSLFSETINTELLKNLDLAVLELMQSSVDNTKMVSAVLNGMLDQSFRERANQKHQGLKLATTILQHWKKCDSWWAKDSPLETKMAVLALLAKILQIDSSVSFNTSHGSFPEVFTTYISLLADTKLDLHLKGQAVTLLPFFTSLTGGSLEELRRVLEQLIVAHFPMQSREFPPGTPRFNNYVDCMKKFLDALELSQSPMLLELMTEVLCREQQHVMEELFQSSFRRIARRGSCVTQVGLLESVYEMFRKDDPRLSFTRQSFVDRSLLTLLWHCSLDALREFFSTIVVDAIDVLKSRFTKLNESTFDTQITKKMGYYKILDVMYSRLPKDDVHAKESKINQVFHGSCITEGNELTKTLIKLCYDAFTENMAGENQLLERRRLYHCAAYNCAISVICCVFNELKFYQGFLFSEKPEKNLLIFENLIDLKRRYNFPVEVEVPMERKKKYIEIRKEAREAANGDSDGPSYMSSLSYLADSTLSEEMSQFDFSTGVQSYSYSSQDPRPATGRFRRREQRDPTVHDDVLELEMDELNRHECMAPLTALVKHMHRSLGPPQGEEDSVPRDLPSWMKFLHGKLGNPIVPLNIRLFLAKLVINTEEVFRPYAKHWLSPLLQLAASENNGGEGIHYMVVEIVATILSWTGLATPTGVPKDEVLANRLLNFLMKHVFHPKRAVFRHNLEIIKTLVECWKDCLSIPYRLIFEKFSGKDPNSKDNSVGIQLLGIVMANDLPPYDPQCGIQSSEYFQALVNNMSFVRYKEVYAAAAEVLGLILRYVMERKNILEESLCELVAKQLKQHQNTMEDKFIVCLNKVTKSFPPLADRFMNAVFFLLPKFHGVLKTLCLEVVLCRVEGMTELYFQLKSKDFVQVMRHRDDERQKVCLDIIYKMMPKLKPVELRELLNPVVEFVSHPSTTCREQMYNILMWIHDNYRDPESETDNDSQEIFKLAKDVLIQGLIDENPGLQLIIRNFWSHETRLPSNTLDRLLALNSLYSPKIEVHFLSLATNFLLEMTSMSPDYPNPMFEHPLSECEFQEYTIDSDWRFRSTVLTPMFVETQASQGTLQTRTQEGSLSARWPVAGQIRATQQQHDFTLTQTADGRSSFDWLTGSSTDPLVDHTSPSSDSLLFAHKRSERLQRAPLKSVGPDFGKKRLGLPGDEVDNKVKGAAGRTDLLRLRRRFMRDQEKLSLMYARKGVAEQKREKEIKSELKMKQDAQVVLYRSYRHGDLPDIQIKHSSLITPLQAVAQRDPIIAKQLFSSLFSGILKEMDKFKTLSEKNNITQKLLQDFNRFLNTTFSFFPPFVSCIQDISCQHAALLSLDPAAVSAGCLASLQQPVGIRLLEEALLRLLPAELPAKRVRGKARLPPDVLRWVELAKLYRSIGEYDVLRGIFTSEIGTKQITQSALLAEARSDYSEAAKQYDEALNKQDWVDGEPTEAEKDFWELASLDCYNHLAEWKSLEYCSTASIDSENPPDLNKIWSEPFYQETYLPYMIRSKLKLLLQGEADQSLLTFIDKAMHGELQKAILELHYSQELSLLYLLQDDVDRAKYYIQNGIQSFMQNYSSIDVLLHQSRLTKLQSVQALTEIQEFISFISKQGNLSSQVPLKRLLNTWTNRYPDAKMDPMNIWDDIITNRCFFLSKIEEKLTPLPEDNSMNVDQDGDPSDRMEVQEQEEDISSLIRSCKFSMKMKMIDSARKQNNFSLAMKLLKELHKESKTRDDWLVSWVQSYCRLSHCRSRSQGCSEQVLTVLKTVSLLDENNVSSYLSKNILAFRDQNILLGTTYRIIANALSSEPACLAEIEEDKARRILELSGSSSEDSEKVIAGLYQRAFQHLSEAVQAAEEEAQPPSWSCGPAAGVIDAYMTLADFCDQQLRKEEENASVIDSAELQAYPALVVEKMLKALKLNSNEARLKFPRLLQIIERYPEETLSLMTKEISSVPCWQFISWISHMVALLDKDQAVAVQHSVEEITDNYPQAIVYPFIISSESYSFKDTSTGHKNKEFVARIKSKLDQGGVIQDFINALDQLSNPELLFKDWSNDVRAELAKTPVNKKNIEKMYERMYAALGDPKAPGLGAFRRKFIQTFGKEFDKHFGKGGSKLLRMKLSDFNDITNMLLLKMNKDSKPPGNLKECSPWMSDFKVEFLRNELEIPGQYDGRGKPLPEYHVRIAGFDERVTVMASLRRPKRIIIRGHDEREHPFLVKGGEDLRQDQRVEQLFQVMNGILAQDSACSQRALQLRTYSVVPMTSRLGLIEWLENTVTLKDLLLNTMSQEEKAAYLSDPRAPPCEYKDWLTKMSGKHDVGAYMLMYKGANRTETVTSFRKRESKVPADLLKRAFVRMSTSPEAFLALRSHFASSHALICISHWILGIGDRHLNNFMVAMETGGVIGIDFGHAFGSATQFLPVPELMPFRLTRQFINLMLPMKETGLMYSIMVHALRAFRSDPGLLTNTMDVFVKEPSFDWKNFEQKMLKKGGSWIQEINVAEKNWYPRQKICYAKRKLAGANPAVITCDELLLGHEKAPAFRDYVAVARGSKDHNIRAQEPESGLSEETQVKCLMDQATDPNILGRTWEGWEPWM
UniProt P54578: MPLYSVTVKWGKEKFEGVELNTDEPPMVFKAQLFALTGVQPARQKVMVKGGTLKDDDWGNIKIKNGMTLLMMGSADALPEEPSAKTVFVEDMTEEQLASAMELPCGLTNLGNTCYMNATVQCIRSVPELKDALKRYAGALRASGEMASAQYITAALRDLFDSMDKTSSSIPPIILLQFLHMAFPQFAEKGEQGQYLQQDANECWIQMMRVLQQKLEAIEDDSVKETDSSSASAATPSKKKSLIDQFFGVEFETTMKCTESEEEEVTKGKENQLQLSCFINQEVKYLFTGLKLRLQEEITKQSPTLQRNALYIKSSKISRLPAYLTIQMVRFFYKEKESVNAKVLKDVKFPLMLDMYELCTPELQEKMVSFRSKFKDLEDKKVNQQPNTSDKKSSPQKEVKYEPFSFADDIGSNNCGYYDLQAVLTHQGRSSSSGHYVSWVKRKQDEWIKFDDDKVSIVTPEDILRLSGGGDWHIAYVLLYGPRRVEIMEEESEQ

The target of one series is DNA-PK (Homo sapiens, UniProt P78527). To be noted: read-out: IC50 DNA-PK; cited from earlier work.
A further series deals with HDAC1A. To be noted: cited from earlier work.
For series [1], the target named is T1, ubiquitin C-terminal hydrolase L3 (Homo sapiens, UniProt P15374).
T1 sequence (P15374 1-230): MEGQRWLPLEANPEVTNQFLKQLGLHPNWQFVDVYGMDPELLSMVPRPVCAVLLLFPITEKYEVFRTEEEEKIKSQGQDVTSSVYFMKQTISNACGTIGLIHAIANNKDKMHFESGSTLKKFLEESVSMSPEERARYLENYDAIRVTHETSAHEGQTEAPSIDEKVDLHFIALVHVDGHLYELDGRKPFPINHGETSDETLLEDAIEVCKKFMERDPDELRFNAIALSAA
Particulars: L3 vs L1; cited from earlier work.

A further series deals with human USP14 (Homo sapiens, UniProt P54578). To be noted: cited from earlier work.

In general, IC50 refers to the concentration that gives 50% inhibition. For the molecule `COC[C@H]1OC(=O)c2coc3c2[C@@]1(C)C1=C(C3=O)[C@@H]2CCC(=O)[C@@]2(C)C[C@H]1OC(C)=O` [Wortmannin], the IC50 at DNA-PK was 0.016 µM.

For Givinostat, the IC50 in the series with HDAC1A was 0.016 µM.

For TCID, in series [1], the “selective to L1” value was 125 fold.

Take `Cc1cc(C(=O)CN2CCCC2)c(C)n1-c1ccc(F)cc1` [IU1]: the IC50 on human USP14 is 4.7 µM.
